Laboratory results as given in patent US20130323314A1, “Novel Nanoparticles of Lactoferrin Useful for Preparing a Pharmaceutical Composition Facilitating Easy Delivery of the Drug and a Process for Preparing the Same” (UNIVERSITY OF HYDERABAD, priority 2011, published 2013).
Structures can show the parent of a compound that is named as a salt. Marks after values point to notes of the source that are not given here.

Test: Pharmacokinetics and tissue distribution after intravenous administration
Conditions: rat

Q: With `COc1cccc2c1C(=O)c1c(O)c3c(c(O)c1C2=O)C[C@@](O)(C(=O)CO)C[C@@H]3O[C@H]1C[C@H](N)[C@H](O)[C@H](C)O1` [Doxo, Doxorubicin hydrochloride] as the compound, how does the AUC (Blood) read?
A: 206.564 (h) * (μg/μL)

Q: And the AUC (Heart)?
A: 445.749 (h) * (μg/g)

Q: And the AUC (Kidney)?
A: 3428 (h) * (μg/g)

Q: What about the AUC (Spleen) of the same compound?
A: 445.3 (h) * (μg/g)
